This is a sample that favours compounds with a hit; in the whole collection about 13% have one here.
JMJD2E inh = JMJD2E (human) inhibition; AID 2147; hit rate 1.6% among 230,000; Potency, µM (titrated, usually from 57.1 µM), without a hit: at the top dose activity change, negative = inhibition, most hits filed as inhibitors; JMJD2E catalytic domain, FDH-coupled NADH fluorescence (FDH is formaldehyde dehydrogenase);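 further: potency means the concentration at half of the fitted maximal effect; 0% = wells with enzyme and -100% = buffer wells without enzyme; nearly all actives have a fitted effect of over 50% in size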
LMNA splice mod = changes lamin A minigene splicing in HeLa cells. HeLa LMNA splicing GFP/RFP minigene ratio, 48 h. Potency, µM (titrated, usually from 46.1 µM), inactives show at the top dose ratio change, negative = inhibition, usual class: inhibitors. hit rate 0.01% among 200,000; active means well fitted inhibition curve with a large enough effect in the signal ratio, with a control signal flat, not every such curve was filed as active; inconclusive means small, poorly fitted or top-dose-only effect, or effect the other way, or a change in a side signal; the % refers to the signal ratio; further: potency means the concentration at half of the fitted maximal effect; on the % scale 0 is the no-effect control and ±100 the full control effect
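Read-out is the ratio of GFP to DsRed2 object intensity, acquired by 488 nm laser-scanning cytometry on HeLa lamin A-EGFP minigene reporter cells. Compound incubation 48 hrs at 37 °C in Opti-MEM with 2% FBS; DMSO 0.5% final.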
ALDH1A1 inh = blocks purified human ALDH1A1 activity; hit rate 7.3% among 220,000; Potency, µM (top dose mostly 75.3 µM), for the others: at the highest dose activity, negative = inhibition, most hits filed as inhibitors; Purified ALDH1A1, NADH fluorescence, propionaldehyde substrate; P00352; active means well fitted inhibition curve with a large enough effect, not every such curve was filed as active; inconclusive means small, poorly fitted or top-dose-only effect, or another doubt; inactive means no such curve, though single readings can be large or run the other way;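 further: potency means the concentration at half of the fitted maximal effect; plate controls were no enzyme wells and a reference inhibitor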
Sfp inh = Sfp phosphopantetheinyl transferase inhibition. 3.5% of 310,000 active. AID 1490. Potency, µM, inactives show max response, negative = inhibition, actives largely listed as inhibitors. Biochemical Sfp PPTase activity, qHTS; active = well fitted inhibition curve with a large enough effect; inconclusive = small, poorly fitted or top-dose-only effect, or another doubt; inactive = no such curve, though single readings can be large or run the other way;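 note: the enzyme is Sfp with the accession as filed and its product quenches rhodamine fluorescence; potency is the fitted concentration of half-maximal effect; 0% = enzyme reaction without inhibitor and -100% = no enzyme wells; top concentration of the series not given in the record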
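After 15 min at room temperature with compound, 15 nM Sfp received 5 uM rhodamine-CoA plus 12.5 uM BHQ-2-ybbR (50 mM Hepes pH 7.6, 10 mM MgCl2). Rate came from the fluorescence difference over 30 min, ex 525/em 598 nm.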
miR-21 reporter = raises the signal of a miR-21 reporter. Potency, µM (highest dose often 38.3 µM), without a hit: top-dose reporter change, positive = more light. 340,000 tested, under 10 active. HeLa miR-21 FLuc reporter, luciferase, 48 h; active = well fitted rising curve with a large enough effect; inconclusive = small, poorly fitted or top-dose-only effect; inactive = no such curve, though single readings can be large or run the other way;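 further: % of control where 0% means no effect; miR-21 action dims this reporter so a rising signal means less miR-21 action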
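HeLa cells stably expressing CMV-driven firefly luciferase with a downstream miR-21 binding sequence, endogenously expressing miR-21, were treated with titrations (up to about 40uM final) for 48 hours at 37 degree Celsius. Luciferase luminescence was read after lysis.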
G9a block = inhibitors of human histone lysine methyltransferase G9a; Potency, µM (series often up to 102 µM), inactives show at the top dose activity, negative = inhibition, most hits filed as inhibitors; G9a H3K9 monomethylation, AlphaScreen, 2 h; Q96KQ7; hit rate 8.8% among 350,000; further: potency means the concentration at half of the fitted maximal effect; on the % scale 0 is the no-effect control and ±100 the full control effect; nearly all actives have a fitted effect of over 75% in size
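Chemiluminescent proximity detection of H3K9 monomethylation, read after 10 min bead incubation in the dark. Reaction: 20 nM G9a, 500 nM biotin-H3K9 peptide, 20 uM SAM cofactor, 2 h, room temperature, following 15 min enzyme-compound preincubation.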
Active calls of the source: *; ! = repeats disagree; [ ] = another dose, or the depositor's remark. Unless noted, the call rests on the fitted dose curve; in most records, active means well fitted curve in the direction sought with a large enough effect; inconclusive means small, poorly fitted or top-dose-only effect, or another doubt; inactive means no such curve, though single readings can be large; an effect the other way counts as inactive or inconclusive.

Preview:
CCC(=O)OC1(C)C(=O)C=C2C=C(CCCNC(=O)OC(C)(C)C)OC=C2C1=O (stereo not given) was read as JMJD2E inh -13%, ALDH1A1 inh 1% and Sfp inh -4%.
COc1cc(/C=N/N2CCN(C3c4ccccc4-c4ccccc43)CC2)cc(OC)c1O was read as JMJD2E inh inconclusive, LMNA splice mod -14%, ALDH1A1 inh -5%, Sfp inh 40µM*, miR-21 reporter -11% and G9a block 1.6µM*.

All compounds of this part, repeating the preview:
CCC(=O)OC1(C)C(=O)C=C2C=C(CCCNC(=O)OC(C)(C)C)OC=C2C1=O (stereo not given) was read as JMJD2E inh -13%, ALDH1A1 inh 1% and Sfp inh -4%.
COc1cc(/C=N/N2CCN(C3c4ccccc4-c4ccccc43)CC2)cc(OC)c1O was read as JMJD2E inh inconclusive, LMNA splice mod -14%, ALDH1A1 inh -5%, Sfp inh 40µM*, miR-21 reporter -11% and G9a block 1.6µM*.
`COc1cc(/C=N/N2CCN(C3c4ccccc4-c4ccccc43)CC2)cc(OC)c1OC` gave JMJD2E inh -5%, LMNA splice mod -12%, ALDH1A1 inh 11%, Sfp inh inconclusive, miR-21 reporter -2% and G9a block 50µM*.
For CC(C)=NNc1nc(-c2ccccc2)c(C)s1 the results were JMJD2E inh -6%, ALDH1A1 inh inconclusive, Sfp inh 56µM*, miR-21 reporter -7% and G9a block 32µM*.
Cc1sc(N/N=C/c2ccco2)nc1-c1ccccc1 was read as JMJD2E inh 1%, LMNA splice mod inconclusive, ALDH1A1 inh -1%, Sfp inh -4%, miR-21 reporter -25% and G9a block inconclusive.
CN1c2ccccc2C(C)(C)C12C=Nc1c(cc(N3CCOCC3)c3ccccc13)O2 (stereo not given) was read as JMJD2E inh inconclusive, LMNA splice mod inconclusive, ALDH1A1 inh -5%, Sfp inh -8%, miR-21 reporter inconclusive and G9a block 45µM*.
For CCN1C(=O)/C(=C2\SC(=S)N(CC3CCCO3)C2=O)c2ccccc21 (stereo not given) the results were JMJD2E inh 3%, LMNA splice mod -7%, ALDH1A1 inh inconclusive, Sfp inh 19%, miR-21 reporter 0% and G9a block 4µM*.
`CCN1C(=O)/C(=C2\SC(=S)N(NC(=O)c3ccccc3O)C2=O)c2ccccc21` gave JMJD2E inh 25µM*, Sfp inh -21%, miR-21 reporter 0% and G9a block 16µM*.
`Cc1cccc(NC(=O)CN2C(=O)/C(=C3\SC(=S)N(CC4CCCO4)C3=O)c3ccccc32)c1` (stereo not given) gave Sfp inh -1%, miR-21 reporter -2% and G9a block -22%.
Cc1ccc(NC(=O)c2cc(S(=O)(=O)N3CCCCCC3)ccc2F)cc1F was read as LMNA splice mod inconclusive, miR-21 reporter 1% and G9a block 10%[59 µM].
Screening C[C@@H](C(=O)CC(=O)OC(C)(C)C)[C@@H](O)c1ccccc1 returned Sfp inh 11%, miR-21 reporter 0% and G9a block 23%.
For CCOC(=O)c1ccccc1NC(=S)N1CC(C)CC(C)C1 (stereo not given) the results were JMJD2E inh inconclusive, LMNA splice mod -4%, ALDH1A1 inh 25µM*, Sfp inh 14%, miR-21 reporter -5% and G9a block 5%.
`Cc1cc(-c2n[nH]c(=S)n2/N=C/C(Cl)=C/c2ccccc2)n[nH]1` gave JMJD2E inh inconclusive, LMNA splice mod -25%, ALDH1A1 inh inconclusive, Sfp inh 50µM*, miR-21 reporter 12% and G9a block 1.6µM*.
For S=c1[nH]nc(-c2ccco2)n1/N=C/C(Cl)=C/c1ccccc1 the results were JMJD2E inh -10%, ALDH1A1 inh -5%, Sfp inh inconclusive, miR-21 reporter 0% and G9a block 4.5µM*.
`O=[N+]([O-])c1ccccc1/C=C/C=N/n1c(-c2ccco2)n[nH]c1=S` gave JMJD2E inh 4%, ALDH1A1 inh -7%, Sfp inh -5%, miR-21 reporter -9% and G9a block -131%.
`Cc1ccc(NS(=O)(=O)c2c(C(=O)N3CCC(C)CC3)c(C)n(C)c2C)cc1Cl` gave LMNA splice mod inconclusive, miR-21 reporter inconclusive and G9a block 10%[59 µM].
`Cc1ccsc1CN(Cc1ccco1)C(=O)c1ccc(Cl)cc1` gave miR-21 reporter 10% and G9a block 33%[59 µM].
COc1ccc(OCC2CCNCC2)cc1 was read as Sfp inh 5%, miR-21 reporter -21% and G9a block 50µM*.
For CNCCC(Oc1ccccc1C)c1ccccc1 (stereo not given) the results were JMJD2E inh 12%, LMNA splice mod inconclusive, ALDH1A1 inh -13%, Sfp inh 6% and G9a block 21µM*!.
Screening O=C1CC(=O)N(c2cccc(F)c2)N1 returned JMJD2E inh 1%, LMNA splice mod 14%[9.22 µM], ALDH1A1 inh inconclusive, Sfp inh 20%, miR-21 reporter -11% and G9a block 56µM*.
CO[C@@H]1COC(=O)CC=C[C@@H](C)[C@@H]2C=C[C@H](O)[C@@H](COC(=O)[C@H](C)NC(=O)CC=C[C@H]1C)O2 was read as ALDH1A1 inh 1%[13.5 µM] and Sfp inh 8%.
For Cc1ccc(NC(=S)NNC(=O)c2nn(C)c(C)c2Cl)cc1 the results were JMJD2E inh 13µM*, LMNA splice mod -7%, ALDH1A1 inh inconclusive, Sfp inh 28%, miR-21 reporter -73% and G9a block inconclusive.
Screening Cc1ccc(NC(=S)NNC(=O)c2c([N+](=O)[O-])c(C)nn2C)cc1 returned JMJD2E inh 6%, LMNA splice mod 5%, ALDH1A1 inh -3%, Sfp inh 7%, miR-21 reporter -1% and G9a block 65%[12.7 µM].
For Cc1ccc(NC(=S)NNC(=O)c2c(Cl)c(C)nn2C)cc1 the results were JMJD2E inh 1%, LMNA splice mod inconclusive, ALDH1A1 inh inconclusive, Sfp inh 31%, miR-21 reporter -10% and G9a block 1.4µM*.

Next part; it opens with the 2 that closed the last part.
Screening Cc1ccc(NC(=S)NNC(=O)c2c([N+](=O)[O-])c(C)nn2C)cc1 returned JMJD2E inh 6%, LMNA splice mod 5%, ALDH1A1 inh -3%, Sfp inh 7%, miR-21 reporter -1% and G9a block 65%[12.7 µM].
For Cc1ccc(NC(=S)NNC(=O)c2c(Cl)c(C)nn2C)cc1 the results were JMJD2E inh 1%, LMNA splice mod inconclusive, ALDH1A1 inh inconclusive, Sfp inh 31%, miR-21 reporter -10% and G9a block 1.4µM*.
Screening CCOc1ccccc1NC(=O)CSc1nc2c(oc3ccccc32)c(=O)n1-c1ccc(F)cc1 returned miR-21 reporter -11% and G9a block 6%[59 µM].
`CCN1C(=O)[C@H]2[C@@H](c3ccc(-c4cc(C(C)=O)cs4)cc3)N3CCC[C@@]3(C(=O)OC)[C@H]2C1=O` gave G9a block 28%[2.33 µM].
For C#CCOc1ccccc1CNc1ccccc1 the results were JMJD2E inh -4%, LMNA splice mod 9%, ALDH1A1 inh 4%, Sfp inh 5%, miR-21 reporter -11% and G9a block 2%[59 µM].
C#CCOc1ccccc1CNC1CCN(Cc2ccccc2)CC1 was read as Sfp inh 79µM*, miR-21 reporter -6% and G9a block 11µM*.

Screening results deposited in PubChem by National Center for Advancing Translational Sciences (NCATS).
